From patent US20020128256A1, “Methods for the treatment or prevention of inflammatory diseases characterized by abnormal cell proliferation” (priority 1997, published 2002)

Biological target: T1, Gardos channel of erythrocytes (Homo sapiens, UniProt O15554)
T1 construct: endogenous in cells; host or cells: erythrocytes
Assay: Gardos Channel Assay
Type: cell-based

O=C1CC(c2ccc(Cl)cc2)(c2ccc(Cl)cc2)c2ccc(Cl)cc21 [Compound 8, 6-Chloro-3,3-di(4-chlorophenyl)indanone]
IC50: 176 nM | inhibition at 10 µM (read-out: Gardos Channel Assay Inhibition (%)): 30%
